{"sequences": {"note": "Sequences of proteins named here, by UniProt entry; tags and fusion partners are left off. Residues count along the entry.", "UniProt P03372, whole entry, species assumed": "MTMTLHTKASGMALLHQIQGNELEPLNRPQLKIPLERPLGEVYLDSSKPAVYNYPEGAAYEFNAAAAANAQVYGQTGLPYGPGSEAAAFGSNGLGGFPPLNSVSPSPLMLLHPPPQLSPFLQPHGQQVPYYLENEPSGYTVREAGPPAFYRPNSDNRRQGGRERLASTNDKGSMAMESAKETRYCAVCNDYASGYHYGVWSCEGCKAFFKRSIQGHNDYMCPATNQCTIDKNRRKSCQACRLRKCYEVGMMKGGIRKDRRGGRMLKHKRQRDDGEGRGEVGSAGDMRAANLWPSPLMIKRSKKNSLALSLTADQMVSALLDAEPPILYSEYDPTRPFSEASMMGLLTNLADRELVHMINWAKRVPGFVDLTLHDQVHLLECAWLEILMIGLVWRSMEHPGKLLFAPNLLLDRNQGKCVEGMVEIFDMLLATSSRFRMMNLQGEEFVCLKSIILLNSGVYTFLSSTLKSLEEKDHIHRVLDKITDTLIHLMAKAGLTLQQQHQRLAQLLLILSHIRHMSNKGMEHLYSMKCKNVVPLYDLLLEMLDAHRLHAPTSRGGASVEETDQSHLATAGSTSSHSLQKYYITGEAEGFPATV", "UniProt P03372, 311-547 limits assumed, species assumed": "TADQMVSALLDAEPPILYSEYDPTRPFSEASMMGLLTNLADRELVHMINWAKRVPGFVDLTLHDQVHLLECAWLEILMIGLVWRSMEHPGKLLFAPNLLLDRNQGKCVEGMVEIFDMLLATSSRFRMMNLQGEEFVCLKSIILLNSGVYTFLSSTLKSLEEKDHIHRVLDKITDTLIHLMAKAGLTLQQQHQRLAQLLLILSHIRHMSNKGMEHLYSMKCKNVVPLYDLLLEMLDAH"}, "source": "patent US20130116277A1", "about": "“ALDO-KETO REDUCTASE SUBFAMILY 1C3 (AKR1C3) INHIBITORS” (priority 2007, published 2013)", "key": {"ER-alpha": {"molecular_target": "ER-alpha (Homo sapiens, UniProt P03372)", "experiment": "ER-alpha transactivation (ERE-LUC luciferase) in HEK-293 cells;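 also: HEK-293 cells co-transfected with an ER-alpha expression plasmid, an ERE-driven firefly luciferase reporter and a CMV Renilla control, with the firefly signal normalized to Renilla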"}, "ER-α": {"molecular_target": "ER-α (Homo sapiens, UniProt P03372)"}}}
{"smiles": "O=c1c2ccc(O)cc2c(-c2ccccc2)cn1-c1ccc(O)cc1", "note": "[Compound 15a, 6-hydroxy-2-(4-hydroxyphenyl)-4-phenylisoquinolin-1(2H)-one]", "values": [{"measurement": "EC50", "setting": "ER-alpha", "result": "> 10", "unit": "µM"}]}
{"smiles": "COc1ccc(-c2cn(-c3ccc(O)cc3)c(=O)c3c(O)cc(O)cc23)cc1", "note": "[Compound 15g, 6,8-dihydroxy-2-(4-hydroxyphenyl)-4-(4-methoxyphenyl)isoquinolin-1(2H)-one]", "values": [{"measurement": "EC50", "setting": "ER-alpha", "result": "> 10", "unit": "µM"}, {"measurement": "Ki", "setting": "ER-α", "result": 0.0632, "unit": "µM"}]}
